Reference: ChEMBL document CHEMBL5241065, “If small molecules immunotherapy comes, can the prime be far behind?” (Eur J Med Chem, 2021)

Sequences of proteins named here, by UniProt entry; tags and fusion partners are left off. A change or cut given only in a name is not applied to a line headed by its entry.
UniProt Q06187: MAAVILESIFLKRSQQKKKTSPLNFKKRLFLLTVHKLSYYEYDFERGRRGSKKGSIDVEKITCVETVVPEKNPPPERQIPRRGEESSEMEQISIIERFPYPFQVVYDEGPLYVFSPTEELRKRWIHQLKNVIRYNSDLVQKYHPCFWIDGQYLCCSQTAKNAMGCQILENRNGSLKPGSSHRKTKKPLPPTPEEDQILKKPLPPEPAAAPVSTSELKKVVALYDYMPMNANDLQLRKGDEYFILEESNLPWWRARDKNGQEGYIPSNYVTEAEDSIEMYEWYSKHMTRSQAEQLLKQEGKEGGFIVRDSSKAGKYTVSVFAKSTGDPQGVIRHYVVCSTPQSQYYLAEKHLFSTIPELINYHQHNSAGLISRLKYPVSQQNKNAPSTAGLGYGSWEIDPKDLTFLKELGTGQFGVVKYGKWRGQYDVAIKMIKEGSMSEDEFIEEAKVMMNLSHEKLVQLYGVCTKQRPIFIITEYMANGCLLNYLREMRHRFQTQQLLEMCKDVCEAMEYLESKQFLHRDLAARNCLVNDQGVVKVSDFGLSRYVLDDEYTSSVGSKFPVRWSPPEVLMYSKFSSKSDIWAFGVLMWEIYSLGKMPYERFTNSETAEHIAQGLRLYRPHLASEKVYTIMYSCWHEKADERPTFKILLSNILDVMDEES

Biological target: Tyrosine-protein kinase BTK (Homo sapiens, UniProt Q06187)

- IC50: 0.5 nM
SMILES: C=CC(=O)Nc1cccc(Nc2nc(Nc3ccc(OCCOC)cc3)ncc2F)c1 [SPEBRUTINIB]
